Assay results: PubChem BioAssay AID624377 (The Scripps Research Institute Molecular Screening Center, 2012)
This is a selection; strong and weak results do not stand in their true shares. Activity calls are given as the source filed them. Rule as the data show it: active = inhibition above about 25%; inactive = the rest.

Amino acid sequences for entries named in this document (tags omitted). A change or cut given only in a name is not applied to a line headed by its entry.
UniProt Q9ULH1: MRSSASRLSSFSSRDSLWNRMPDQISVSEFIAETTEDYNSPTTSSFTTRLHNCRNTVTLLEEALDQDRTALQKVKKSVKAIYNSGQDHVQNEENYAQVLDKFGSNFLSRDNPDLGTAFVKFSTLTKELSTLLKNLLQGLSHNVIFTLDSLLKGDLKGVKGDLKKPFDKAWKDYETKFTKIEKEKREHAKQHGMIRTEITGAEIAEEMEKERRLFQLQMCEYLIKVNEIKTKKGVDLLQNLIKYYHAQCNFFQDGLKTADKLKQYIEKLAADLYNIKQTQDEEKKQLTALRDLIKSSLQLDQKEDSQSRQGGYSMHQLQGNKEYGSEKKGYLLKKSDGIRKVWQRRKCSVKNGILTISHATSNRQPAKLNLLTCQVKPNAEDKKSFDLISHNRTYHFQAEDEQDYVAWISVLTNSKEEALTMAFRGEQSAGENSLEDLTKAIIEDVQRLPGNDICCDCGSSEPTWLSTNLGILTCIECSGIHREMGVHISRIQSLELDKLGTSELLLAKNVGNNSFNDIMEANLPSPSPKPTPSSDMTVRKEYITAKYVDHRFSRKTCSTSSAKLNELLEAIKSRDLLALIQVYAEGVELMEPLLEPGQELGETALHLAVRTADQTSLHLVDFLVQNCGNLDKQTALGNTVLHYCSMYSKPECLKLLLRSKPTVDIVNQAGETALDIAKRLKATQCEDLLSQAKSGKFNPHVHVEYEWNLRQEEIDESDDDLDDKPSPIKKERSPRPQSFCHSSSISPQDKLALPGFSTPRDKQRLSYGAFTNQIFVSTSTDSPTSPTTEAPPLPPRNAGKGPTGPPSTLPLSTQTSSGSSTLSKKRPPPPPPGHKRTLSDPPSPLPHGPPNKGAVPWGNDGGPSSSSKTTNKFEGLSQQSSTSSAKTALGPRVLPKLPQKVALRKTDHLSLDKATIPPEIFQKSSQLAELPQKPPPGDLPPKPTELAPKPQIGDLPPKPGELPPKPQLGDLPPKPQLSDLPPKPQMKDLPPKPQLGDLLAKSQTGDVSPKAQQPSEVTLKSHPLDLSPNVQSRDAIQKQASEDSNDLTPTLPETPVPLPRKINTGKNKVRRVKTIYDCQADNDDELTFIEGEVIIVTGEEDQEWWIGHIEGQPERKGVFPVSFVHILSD

target: Arf-GAP with SH3 domain, ANK repeat and PH domain-containing protein 1 (Homo sapiens) (UniProt Q9ULH1); assay: blockers of ASAP1-stimulated ARF1 GTP hydrolysis – biochemical, fluorescence polarization, primary screen (AID 624377); settings: GDP FP detection, at 16.5 µM, active compounds read high;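 also: 0% = vehicle with enzyme and substrate and 100% = no enzyme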

Row | SMILES | inhibition
1 | Cc1ccc(NP(=O)(Oc2ccccc2F)Oc2ccccc2F)nc1 | inactive: -2.4%
2 | CCn1c(=O)n(C2CCN(CC3CCCCCCC3)C[C@H]2CO)c2ccccc21 (some centres undefined) | inactive: -12%
3 | CC(=O)Nc1ccc([As](=O)(O)O)cc1 | inactive: -6.63%
4 | O=C(O)c1ccccc1[As](=O)(O)O | inactive: -3.48%
5 | CCCC1OP(N)(=O)OCC1CC (centres undefined) | inactive: 1.71%
6 | O=P(Nc1nc2ccc(Cl)cc2s1)(c1ccccc1)c1ccccc1 | inactive: 7.74%
7 | CN(C)P(=O)(N(C)C)n1c(Nc2ccccc2)nnc1-c1ccccc1 | inactive: -4.23%
8 | CN(C(=O)Cc1ccccc1)C1CC[C@@]2(CCCO2)C[C@@H]1N1CCCC1 (some centres undefined) | inactive: 9.07%
9 | CCN(N=Nc1nonc1N)c1nonc1N | inactive: -18.4%
10 | Nc1cccc2ccc([As](=O)(O)O)cc12 | inactive: -1.25%
11 | COc1ccccc1OP(=O)(Nc1ccc(C)cn1)Oc1ccccc1OC | inactive: 6.34%
12 | Cc1ccc(OP(=O)(Nc2nccs2)Oc2ccc(C)cc2)cc1 | inactive: -6.12%
13 | CN1CCCC(OC(=O)C(c2ccccc2)c2ccccc2)C1 (centres undefined) | inactive: 7.26%
14 | Clc1ccc(Cl)c(NC2=NCC(CBr)S2)c1 (centres undefined) | inactive: 18.6%
15 | NC(=O)c1cc([N+](=O)[O-])cc([N+](=O)[O-])c1N | inactive: 0.43%
16 | CN(C(=O)Cc1ccc(Cl)c(Cl)c1)[C@H]1CCCC[C@H]1N1CCCC1 | inactive: -5.46%
17 | Cc1ccc(N/C(=N/P(=O)(N2CCOCC2)N2CCOCC2)N2CCOCC2)cc1 | inactive: -3.97%
18 | Nc1cc(N)c2nonc2c1[N+](=O)[O-] | inactive: 4.76%
19 | CC(C)CC(=O)NC(Sc1ccc(Cl)cc1)C(Cl)(Cl)Cl (centres undefined) | inactive: -5.35%
20 | Oc1ccccc1CNc1ccccn1 | inactive: -3.72%
21 | O=C(NC(Sc1ccncn1)C(Cl)(Cl)Cl)c1ccccc1 (centres undefined) | inactive: -12.2%

Row | SMILES | inhibition
22 | CC(=O)N1C2C3N(C(C)=O)C1C1N(C(C)=O)C(C(N1C(C)=O)N3C(C)=O)N2C(C)=O | inactive: -12.6%
23 | O=[N+]([O-])c1cccc2n[nH]nc12 | inactive: 16.1%
24 | Cc1ccc(NP(=O)(Oc2ccccc2)Oc2ccccc2)nc1 | inactive: 10.6%
25 | O=[N+]([O-])c1cc([N+](=O)[O-])c(CCNc2ccccc2)c([N+](=O)[O-])c1 | inactive: 7.77%
26 | CCc1nc2c(n1)c1c(non1O)c1c2no[n+]1[O-] | inactive: 2.28%
27 | COc1ccc(C2=NCC(CBr)S2)cc1 (centres undefined) | inactive: -2.61%
28 | CC(C)c1nc(Nc2ccccc2)n(P(=O)(N(C)C)N(C)C)n1 | inactive: 21%
29 | CC(C)=N/N=C(\N)N[N+](=O)[O-] | inactive: 2.04%
30 | CN(C)C(=O)OCCc1n(C)cc[n+]1C | inactive: 2.16%
31 | CC1CCN(C(=O)Oc2c(Cl)cc(Cl)c3cccnc23)CC1 | inactive: -18.2%
32 | c1cc(-c2nn[nH]n2)ccc1-c1nn[nH]n1 | inactive: -11.3%
33 | Nc1ccc([As](=O)(O)c2ccc(N)cc2)cc1 | inactive: -6.47%
34 | C[N+]1=C2C=CC=CC=C2SC12C([N+](=O)[O-])=CC([N+](=O)[O-])=C[C-]2[N+](=O)[O-] (centres undefined) | inactive: -2.47%
35 | CCN(/C(=N/P(=O)(N1CCOCC1)N1CCOCC1)N1CCOCC1)c1ccc(OC)cc1 | inactive: 8.88%
36 | O=C(Nc1cc([As](=O)(O)O)ccc1O)c1ccccc1 | inactive: -4.89%
37 | O=P1(N(CCCl)CCCl)OCCCS1 (centres undefined) | inactive: -10.3%
38 | COC(=O)C1(C)COP(=O)(Nc2ccccc2)OC1 (centres undefined) | inactive: 2.58%
39 | O=[N+]([O-])c1cccc(NC2=NCC(CBr)S2)c1 (centres undefined) | inactive: -2.59%
40 | O=C(O)CNc1ccc([As](=O)(O)O)cc1 | inactive: -3.18%
41 | CC(C)(C)C(=O)NC(Sc1ccncn1)C(Cl)(Cl)Cl (centres undefined) | inactive: -6.6%
42 | O=[N+]([O-])c1ncn(CCn2ncnc2[N+](=O)[O-])n1 | inactive: -4.57%

Row | SMILES | inhibition
43 | O=P(Nc1nc2ccccc2s1)(c1ccccc1)c1ccccc1 | inactive: 1.57%
44 | C[C@H]1OP(=O)(Oc2ccccc2)[C@H](O)[C@H](O)[C@H]1N=[N+]=[N-] (some centres undefined) | inactive: -6.19%
45 | COc1ccc(N)c([N+](=O)[O-])c1[N+](=O)[O-] | inactive: -8.2%
46 | Nc1ccc(CCCCOc2ccccc2)cc1 | inactive: -5.01%
47 | CN(C)C1(CNC(=O)c2ccc(Cl)c(S(N)(=O)=O)c2)CCCCC1 | inactive: 0%
48 | O=P(Nc1ccccn1)(c1ccc(Br)cc1)c1ccc(Br)cc1 | inactive: -5.82%
49 | C/C(N)=N\P(=O)(OCc1ccccc1)OCc1ccccc1 | inactive: 12.7%
50 | C(Cc1nn[nH]n1)Cc1nn[nH]n1 | inactive: 8.74%
51 | Nc1ccc([As](=O)(O)c2ccc([N+](=O)[O-])cc2)cc1 | inactive: 7.13%
52 | O=C(OC1CN2CCC1CC2)c1cccc(Cl)c1 (centres undefined) | inactive: -14.9%
53 | O=[N+]([O-])c1ncn(CCn2cnc([N+](=O)[O-])n2)n1 | inactive: 12.2%
54 | CC(=O)NC(SC(=S)N(C)C)C(Cl)(Cl)Cl (centres undefined) | inactive: -13.7%
55 | O=[As](O)(c1ccccc1)c1ccc(O)cc1 | inactive: -4.3%
56 | c1nnnn1CCn1cnnn1 | inactive: -8.46%
57 | O=P(Nc1nccs1)(c1ccccc1)c1ccccc1 | inactive: -9.2%
58 | CC(C)C(=O)NC(Sc1ccccc1)C(Cl)(Cl)Cl (centres undefined) | inactive: 0.31%
59 | CCc1cc(O)c([N+](=O)[O-])c(C)c1[N+](=O)[O-] | inactive: -8.17%
60 | CC(C)(C)C(=O)NC(Sc1ccccc1)C(Cl)(Cl)Cl (centres undefined) | inactive: 1.46%
61 | O=P1(Nc2nc3ccc(Cl)cc3s2)COc2ccccc2O1 (centres undefined) | inactive: 2.04%
62 | CCOc1ccc(C2=NCC(CBr)S2)cc1 (centres undefined) | inactive: 14%
63 | CC(=O)Nc1ccc([As](=O)(O)O)c(O)c1 | inactive: -0.05%

Row | SMILES | inhibition
64 | CC(=O)Nc1ccc(Oc2c([N+](=O)[O-])cc([N+](=O)[O-])cc2[N+](=O)[O-])cc1 | inactive: -9.79%
65 | CC(=O)c1ccc(N2CC2c2ccncc2)cc1 (centres undefined) | inactive: -7.02%
66 | N#C/C(=C\c1ccc(N(CCBr)CCBr)cc1)C(N)=O | inactive: -13.8%
67 | COC(=O)C1(C)COP(=O)(NCc2ccccc2)OC1 (centres undefined) | inactive: 3.5%
68 | Cc1ccccc1CN(C)C(=O)COC(=O)C(O)(c1ccccc1)c1ccccc1 | inactive: -3.07%
69 | C[C@H]1OP(=O)(Oc2ccccc2)C[C@@H]2O[C@@H]21 (some centres undefined) | inactive: 6.89%
70 | C[C@@H]1C=CCP(=O)(Oc2ccccc2)O1 (some centres undefined) | inactive: -9.07%
71 | O=P1(N(CCCl)CCCl)OCCC2CCCCN21 (centres undefined) | inactive: -13.1%
72 | O=C(NC1CCS(=O)(=O)C1)NP(=S)(Oc1ccccc1)Oc1ccccc1 (centres undefined) | inactive: -16%
73 | CCNC(=S)/N=C(\N)N[N+](=O)[O-] | inactive: 3.67%
74 | c1ccc(-c2nn[nH]n2)c(-c2nn[nH]n2)c1 | inactive: 6.68%
75 | Cc1ccc(NP(=O)(Oc2cccc(C)c2)Oc2cccc(C)c2)nc1 | inactive: -7.1%
76 | CC(NC(=O)COC(=O)C(O)(c1ccccc1)c1ccccc1)c1ccccc1 (centres undefined) | inactive: -0.38%
77 | Cc1ccccc1OP(=O)(Nc1ccccn1)Oc1ccccc1C | inactive: -7.46%
78 | O=c1c2cc([N+](=O)[O-])ccc2[nH]c2c([N+](=O)[O-])cc([N+](=O)[O-])cc12 | inactive: -12.9%
79 | CN(C)C(=O)Oc1noc2ccccc12 | inactive: 9.92%
80 | COC(=O)c1cc2c(s1)N=C(c1ccccc1)N(C)P2(=O)N1CCOCC1 (centres undefined) | inactive: 7.2%
81 | Cc1ccc(OP(=O)(Nc2ccccn2)Oc2ccc(C)cc2)cc1 | inactive: 1.36%
82 | CC(=O)NC(SC(=S)N(CC(C)C)CC(C)C)C(Cl)(Cl)Cl (centres undefined) | inactive: -5.19%
83 | O=C(OC1CN2CCC1CC2)c1ccccc1 (centres undefined) | inactive: -16.4%
84 | CCC(=O)N1C2C3N(C(=O)CC)C1C1N(C(=O)CC)C(C(N1C(=O)CC)N3C(=O)CC)N2C(=O)CC | inactive: -4.06%
